Legend:
[1] = In vitro drug release from in situ photocrosslinked implants (ISPcI) in PBS; details: 30% PLGA/69.4% w/w PEGDA700 ISPcI crosslinked for 5 min, after 200 days
[2] = In vitro drug release from preformed photocrosslinked implants (PPcI) in PBS; format: physicochemical; details: PPcI 30% w/w PLGA 75/25 / PEGDA 700, 5 runs, lamp intensity 100%, after 266 days

bovine serum albumin [BSA]
BSA released [1]: ~86%
% release [2]: approx. 72%

Reference: patent US20230129084A1, “COMPOSITE IMPLANTS” (Re-Vana Therapeutics Ltd., priority 2015, published 2023)
